Source: patent US7482376B2, “Conjugated complement cascade inhibitors” (3-Dimensional Pharmaceuticals, Inc., priority 2003, dated 2009)

Sequences of proteins named here, by UniProt entry; tags and fusion partners are left off. Residues count along the entry.
UniProt P09871, 16-437 limits assumed: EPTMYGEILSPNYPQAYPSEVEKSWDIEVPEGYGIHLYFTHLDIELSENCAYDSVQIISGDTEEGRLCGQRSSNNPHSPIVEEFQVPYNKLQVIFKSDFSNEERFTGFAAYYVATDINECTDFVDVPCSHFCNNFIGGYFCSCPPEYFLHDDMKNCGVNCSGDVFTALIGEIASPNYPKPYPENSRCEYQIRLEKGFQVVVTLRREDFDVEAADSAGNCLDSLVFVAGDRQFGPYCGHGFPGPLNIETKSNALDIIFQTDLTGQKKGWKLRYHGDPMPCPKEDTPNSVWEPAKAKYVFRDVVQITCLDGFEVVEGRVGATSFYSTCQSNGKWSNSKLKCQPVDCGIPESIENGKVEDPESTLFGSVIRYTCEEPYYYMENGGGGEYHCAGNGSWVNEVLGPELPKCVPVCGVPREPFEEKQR
UniProt P09871, 438-688 limits assumed: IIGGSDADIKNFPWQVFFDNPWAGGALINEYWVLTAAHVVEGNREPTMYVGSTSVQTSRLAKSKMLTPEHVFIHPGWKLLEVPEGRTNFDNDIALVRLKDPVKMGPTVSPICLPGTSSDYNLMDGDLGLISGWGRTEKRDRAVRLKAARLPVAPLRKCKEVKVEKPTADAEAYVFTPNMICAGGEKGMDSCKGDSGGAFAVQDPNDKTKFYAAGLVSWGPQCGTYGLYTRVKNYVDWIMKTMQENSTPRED
UniProt O00187, 300-444: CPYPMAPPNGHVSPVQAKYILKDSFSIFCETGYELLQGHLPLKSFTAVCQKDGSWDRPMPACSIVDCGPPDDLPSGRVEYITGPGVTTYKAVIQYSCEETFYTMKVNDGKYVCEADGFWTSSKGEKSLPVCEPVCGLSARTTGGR
UniProt O00187, 445-686: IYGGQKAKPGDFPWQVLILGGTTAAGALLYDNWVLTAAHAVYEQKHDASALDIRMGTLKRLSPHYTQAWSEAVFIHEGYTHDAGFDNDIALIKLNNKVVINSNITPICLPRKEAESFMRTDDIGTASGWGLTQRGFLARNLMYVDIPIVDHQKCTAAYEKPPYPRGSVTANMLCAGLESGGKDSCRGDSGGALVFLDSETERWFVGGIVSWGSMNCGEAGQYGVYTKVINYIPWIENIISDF

What was measured:
[1] = target: Activated human C1s (Homo sapiens, UniProt P09871); conditions: read-out: hC1s Ki corr.; Ki app corrected for substrate concentration (45 μM, Km=78 μM); 37° C., pH 7.5
Description: Reagents: All buffer salts were obtained from Sigma Chemical Company (St. Louis, Mo.), and were of the highest purity available. DTNB was purchased from Pierce (Rockford, Ill.). Z-Gly-Arg-S-Bzl was purchased from Enzyme Systems Products (Livermore, Calif.). Activated human C1s was purchased from Calbiochem (La Jolla, Calif.).
(§1) Reactions were initiated by the addition of a 10 μL aliquot of the enzyme, and the absorbance increase at 405 nm is continuously recorded for 15 minutes in a Molecular Devices plate reader. […] The ratio of the velocity (rate of change in absorbance as a function of time) for a sample containing no test compound is divided by the velocity of a sample containing test compound, and is plotted as a function of test compound concentration. The data are fit to a linear regression, and the value of the slope of the line calculated.

[2] = target: Autoactivated 2-chain human MASP-2 (His-tag, Cys300-Phe686) (Homo sapiens, UniProt O00187); conditions: read-out: MASP-2 Ki corr.; Ki app corrected for substrate concentration (45 μM, Km=8.6 μM); 37° C., pH 7.5
Description: Reagents: All buffer salts were obtained from Sigma Chemical Company (St. Louis, Mo.), and were of the highest purity available. DTNB was purchased from Pierce (Rockford, Ill.). Z-Gly-Arg-S-Bzl was purchased from Enzyme Systems Products (Livermore, Calif.).
as §1

Substance	pKi [1]	pKi [2]
Conjugation with a bisubstituted-PEG20K-(NH2)2 of 6-[3′(5-Carbamimidoyl-2-methylsulfanyl-thiophene-3-sulfonyl)-4-guanidino-6-methyl-biphenyl-2-ylcarbamoyl]-hexanoic acid tetra-trifluoroacetate [Example 8]	7.54	
mPEG20K 2′-urea of 4-(2′-amino-4 ′-guanidino-6′-methyl-biphenyl-3-sulfonyl)-5-methylsulfanyl-thiophene-2-carboxamidine bis-trifluoroacetate [Example 5]	7.09	6.66
Tetravalent PEG 2′-urea conjugate of 4-(2′-amino-4′-guanidino-6′-methyl-biphenyl-3-sulfonyl)-5-methylsulfanyl-thiophene-2-carboxamidine (octa)-trifluoroacetate [Example 13]	7.74	
mPEG20K Amide of 3-{[3′-(5-Carbamimidoyl-2-methylsulfanyl-thiophene-3-sulfonyl)-4-guanidino-6-methyl-biphenyl-2-ylcarbamoyl]-methylsulfanyl}-propionic acid bis-trifluoracetate [Example 6]	7.07	
mPEG20K Amide of 6-{3-[3′-(5-Carbamimidoyl-2-methylsulfanyl-thiophene-3-sulfonyl)-4-guanidino-6-methyl-biphenyl-2-yl]-ureido}-hexanoic acid bis-trifluoroacetate [Example 2]	7.12	6.51

pKi: −log10 of the molar value.
